Measured values reported in PubChem BioAssay AID602229 (The Scripps Research Institute Molecular Screening Center, 2012).
Only a part is listed here, and it is no random draw. Active and inactive are the calls of the source.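 How the source made its calls: active means inhibition above the mean of all tested compounds plus 3 SD (cut at about 70% in these data); inactive means the rest.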

Protein sequences, listed by entry. Tags and fused reporters are not part of them.
UniProt Q9Y5X4, whole entry: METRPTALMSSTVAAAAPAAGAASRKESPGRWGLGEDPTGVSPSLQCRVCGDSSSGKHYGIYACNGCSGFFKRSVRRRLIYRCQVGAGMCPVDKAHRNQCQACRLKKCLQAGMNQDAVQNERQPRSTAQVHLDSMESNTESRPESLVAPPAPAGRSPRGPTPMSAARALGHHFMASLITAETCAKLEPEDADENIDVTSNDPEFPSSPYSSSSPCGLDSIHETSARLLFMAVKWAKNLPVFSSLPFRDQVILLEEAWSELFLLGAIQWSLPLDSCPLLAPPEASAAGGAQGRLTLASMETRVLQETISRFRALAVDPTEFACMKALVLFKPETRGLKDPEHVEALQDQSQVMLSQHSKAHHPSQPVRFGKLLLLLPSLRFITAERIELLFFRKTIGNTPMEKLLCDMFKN

The compounds below were run against Photoreceptor-specific nuclear receptor (Homo sapiens) (UniProt Q9Y5X4) (assay: NCOR release from NR2E3 in cells – cell-based, luminescence, CHO-S, Gal4-NCOR/VP16-NR2E3, primary screen (AID 602229;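 further: 0% = DMSO with NR2E3 transfected cells and 100% = cells lacking NR2E3 construct; higher means lower luciferase signal from less NR2E3 corepressor binding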)). Conditions: CHO-S Gal4-NCOR/VP16-NR2E3 two-hybrid, luciferase; at 3.98 µM; hits give high values.

Row | SMILES | inhibition of corepressor binding
1 | CCOP(=O)(Nc1ccc(C)cn1)OCC | inactive: -11.5%
